Measurements from PMC4515084 (Chemmedchem, 2015).

Chains of the proteins cited; added tags and fusions are not shown. Residues count along the entry.
UniProt P08246, 30-267: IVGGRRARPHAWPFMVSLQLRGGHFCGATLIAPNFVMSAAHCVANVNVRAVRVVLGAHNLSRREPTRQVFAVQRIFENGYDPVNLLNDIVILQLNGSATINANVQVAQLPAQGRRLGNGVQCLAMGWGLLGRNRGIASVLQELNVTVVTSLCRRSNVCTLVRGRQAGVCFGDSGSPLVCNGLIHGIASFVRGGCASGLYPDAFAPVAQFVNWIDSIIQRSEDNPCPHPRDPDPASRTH

Biological target: Human neutrophil elastase (HNE) (Homo sapiens, UniProt P08246)

Question: How did the mode of inhibition turn out when `CC(=O)C1=C(C)N(c2cccc(C(F)(F)F)c2)C(=O)N[C@@H]1c1ccc(C#N)nc1` [Compound 20] was run?
Answer: Its mode of inhibition is “competitive inhibition”.

Question: `CC1=C(C#N)[C@@H](c2ccc(C#N)cc2S(C)(=O)=O)N(C)C(=O)N1c1cccc(C(F)(F)F)c1` [Compound 29, (4S)-4-[4-Cyano-2-(methylsulfonyl)phenyl]-3,6-dimethyl-2-oxo-1-[3-(trifluoromethyl)phenyl]-1,2,3,4-tetrahydropyrimidine-5-carbonitrile] was tested. Which LipE did it give?
Answer: Its LipE is 7.2.

Question: And the mode of inhibition?
Answer: The mode of inhibition was “competitive inhibition”.
